From PubChem BioAssay AID1117328 (Cheminformatics & Chemogenomics Research Group (CCRG), …, 2015) come the findings set out here.

Amino acid sequences for entries named in this document (tags omitted).
UniProt P23443, whole entry, looked up: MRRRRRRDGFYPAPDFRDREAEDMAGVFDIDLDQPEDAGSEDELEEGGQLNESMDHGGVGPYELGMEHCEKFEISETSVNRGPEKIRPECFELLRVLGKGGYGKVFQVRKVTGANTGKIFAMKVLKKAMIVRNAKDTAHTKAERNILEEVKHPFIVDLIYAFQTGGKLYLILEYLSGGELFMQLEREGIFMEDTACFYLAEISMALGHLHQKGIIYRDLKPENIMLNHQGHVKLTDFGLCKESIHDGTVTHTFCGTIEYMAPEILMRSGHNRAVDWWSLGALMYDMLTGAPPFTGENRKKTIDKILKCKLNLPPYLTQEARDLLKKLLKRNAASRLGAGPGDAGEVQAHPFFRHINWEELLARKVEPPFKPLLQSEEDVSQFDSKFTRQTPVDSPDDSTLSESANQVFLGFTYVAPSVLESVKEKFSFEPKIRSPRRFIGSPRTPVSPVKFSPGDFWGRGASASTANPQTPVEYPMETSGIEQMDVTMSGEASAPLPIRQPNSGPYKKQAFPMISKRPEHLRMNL

The target in the experiment is Ribosomal protein S6 kinase beta-1 (Homo sapiens) (UniProt P23443). The experiment can be described thus: p70S6K1 kinase inhibitors, biochemical, LANCE Ultra TR-FRET (AID 1117328). The following applies: LANCE Ultra TR-FRET kinase assay, at 20 µM (top of the series). Background: Time-resolved FRET reads energy transfer from a long-lived donor to a nearby acceptor.

Turning to `CN(CCCl)CCCl`, the inhibition (usually the drop in the measured response relative to a control, in per cent) was 52.4%.
